According to patent US6375979B2 (dated 2002):
Where two headings read alike, the source gives them in different places.

Chains of the proteins cited; added tags and fusions are not shown.
UniProt P58028, whole entry: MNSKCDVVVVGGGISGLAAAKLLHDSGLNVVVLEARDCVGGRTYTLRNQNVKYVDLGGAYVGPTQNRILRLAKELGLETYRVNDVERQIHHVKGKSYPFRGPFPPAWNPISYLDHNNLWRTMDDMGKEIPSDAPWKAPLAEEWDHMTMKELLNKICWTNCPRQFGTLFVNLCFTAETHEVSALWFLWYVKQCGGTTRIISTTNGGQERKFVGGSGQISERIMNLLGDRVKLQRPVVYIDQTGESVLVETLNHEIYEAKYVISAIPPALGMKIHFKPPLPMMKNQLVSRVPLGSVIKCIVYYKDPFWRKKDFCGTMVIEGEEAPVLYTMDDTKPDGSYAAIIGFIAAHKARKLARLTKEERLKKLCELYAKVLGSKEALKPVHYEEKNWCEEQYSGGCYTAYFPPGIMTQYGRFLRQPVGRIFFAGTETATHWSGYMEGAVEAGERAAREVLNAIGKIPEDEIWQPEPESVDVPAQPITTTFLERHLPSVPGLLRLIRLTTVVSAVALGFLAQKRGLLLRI
UniProt P23977, whole entry: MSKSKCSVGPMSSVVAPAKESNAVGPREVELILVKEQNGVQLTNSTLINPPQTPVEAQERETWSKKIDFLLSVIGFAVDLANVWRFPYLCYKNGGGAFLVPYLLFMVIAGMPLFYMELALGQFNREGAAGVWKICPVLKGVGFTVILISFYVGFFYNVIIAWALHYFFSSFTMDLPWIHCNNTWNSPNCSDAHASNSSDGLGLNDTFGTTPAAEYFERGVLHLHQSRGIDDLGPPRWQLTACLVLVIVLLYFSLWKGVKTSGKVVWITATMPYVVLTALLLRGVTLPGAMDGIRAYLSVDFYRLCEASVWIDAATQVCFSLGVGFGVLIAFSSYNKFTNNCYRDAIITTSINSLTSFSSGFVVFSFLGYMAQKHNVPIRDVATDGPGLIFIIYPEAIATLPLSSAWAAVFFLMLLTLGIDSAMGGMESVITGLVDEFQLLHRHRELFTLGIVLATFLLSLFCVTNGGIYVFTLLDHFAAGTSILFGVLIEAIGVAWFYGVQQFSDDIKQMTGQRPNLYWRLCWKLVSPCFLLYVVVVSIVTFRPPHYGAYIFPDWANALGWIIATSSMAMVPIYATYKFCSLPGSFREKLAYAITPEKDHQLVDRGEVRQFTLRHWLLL
UniProt P27338, whole entry: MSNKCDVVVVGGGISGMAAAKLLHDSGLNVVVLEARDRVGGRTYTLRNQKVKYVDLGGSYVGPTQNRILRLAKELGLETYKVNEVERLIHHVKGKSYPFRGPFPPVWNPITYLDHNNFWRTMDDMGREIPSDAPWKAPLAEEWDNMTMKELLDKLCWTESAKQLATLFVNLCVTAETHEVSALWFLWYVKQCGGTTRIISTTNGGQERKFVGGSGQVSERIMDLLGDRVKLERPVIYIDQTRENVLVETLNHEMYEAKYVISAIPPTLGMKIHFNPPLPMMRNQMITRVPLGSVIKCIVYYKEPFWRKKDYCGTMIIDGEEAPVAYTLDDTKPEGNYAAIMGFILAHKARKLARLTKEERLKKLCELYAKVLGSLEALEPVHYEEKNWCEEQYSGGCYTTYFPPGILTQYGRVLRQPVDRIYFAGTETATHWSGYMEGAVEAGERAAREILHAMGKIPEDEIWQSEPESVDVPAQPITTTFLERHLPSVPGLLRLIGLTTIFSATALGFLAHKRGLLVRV

How the values were obtained:
MAO-B [1] = target: T1, MAO-B (Cavia porcellus, UniProt P58028); test: In vivo brain MAO-B inhibition in guinea pig hippocampus after 5 days of administration; settings: for ED50: guinea pig, sc
MAO-B [2] = target: T1, MAO-B; test: MAO-B inhibition in guinea pig hippocampal homogenates in vitro; type: biochemical; settings: read-out: MAO-B % Inhibition x ± SEM
[3] = target: dopamine re-uptake system (Rattus norvegicus, UniProt P23977); test: Inhibition of dopamine re-uptake in rat neostriatal synaptosome preparation; settings: read-out: IC50, concentration needed to inhibit dopamine uptake by 50%; determined graphically, FIG. 18
MAO-B [4] = target: T2, MAO-B (Homo sapiens, UniProt P27338); settings: cited from earlier work
MAO-B [5] = target: T2, MAO-B
γ-interferon production = γ-interferon production by concanavalin A-stimulated spleen cells of treated old rats; type: in vivo, rat; settings: most dramatic increases at 1.0 mg/kg body weight

Compound | ED50 (MAO-B [1]; read-out: ID50 for MAO-B in Guinea Pig Hippocampal Cortex, once a day for 5 days, subcutaneous, larger group of animals, FIG. 20) [mg/kg] | ED50 (MAO-B [1]; read-out: ID50 for brain MAO-B, preliminary studies, once a day for five days, subcutaneous) [mg/kg] | inhibition at 0.3 µM (MAO-B [2]) [%] | times less potent than selegiline, preliminary studies (MAO-B [1]; brain MAO-B in vivo) | times less potent than selegiline as an inhibitor of MAO-B, more recent studies (MAO-B [1]; brain MAO-B in vivo, larger group of animals) | IC50 [3] [µM] | MAO-B inhibitory effect in vivo as a fraction of selegiline's (MAO-B [4]) | times more potent than S(+)DMS as an MAO-B inhibitor (MAO-B [5]) | γ-interferon levels in old rats after administration (γ-interferon production)
C#CCN(C)[C@H](C)Cc1ccccc1 [Selegiline, R-(−)-N-methyl-N-(prop-2-ynyl)-2-aminophenylpropane, reference compound] | ~0.008 | 0.03 | 98.8 ± 0.5 |  |  |  |  |  | 
desmethylselegiline |  |  |  | about 10 times | about 25 times | ~100 | about one-fifth | 20-35 times | restoration of γ-interferon levels
